# Test results from EP4834897A1, “COMPOUNDS WITH TWO AZAHETEROCYCLES SUBSTITUTED ISOINDOLINONE SKELETON AND USES THEREOF” (dated 2026).
# Chains of the proteins cited; added tags and fusions are not shown.
# UniProt P15170, whole entry: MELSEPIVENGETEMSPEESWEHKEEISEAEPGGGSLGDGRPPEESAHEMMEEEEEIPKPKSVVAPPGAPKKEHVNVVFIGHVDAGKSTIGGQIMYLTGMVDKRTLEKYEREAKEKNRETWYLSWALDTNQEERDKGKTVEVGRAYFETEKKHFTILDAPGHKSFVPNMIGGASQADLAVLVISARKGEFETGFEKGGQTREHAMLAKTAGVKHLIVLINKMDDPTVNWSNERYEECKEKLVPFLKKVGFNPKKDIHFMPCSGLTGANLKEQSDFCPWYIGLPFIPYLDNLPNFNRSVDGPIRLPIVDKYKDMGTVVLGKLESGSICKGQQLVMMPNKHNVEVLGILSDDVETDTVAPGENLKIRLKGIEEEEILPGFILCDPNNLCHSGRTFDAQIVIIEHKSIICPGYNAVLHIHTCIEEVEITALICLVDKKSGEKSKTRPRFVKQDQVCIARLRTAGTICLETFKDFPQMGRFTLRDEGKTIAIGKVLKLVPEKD
# UniProt Q96SW2, whole entry: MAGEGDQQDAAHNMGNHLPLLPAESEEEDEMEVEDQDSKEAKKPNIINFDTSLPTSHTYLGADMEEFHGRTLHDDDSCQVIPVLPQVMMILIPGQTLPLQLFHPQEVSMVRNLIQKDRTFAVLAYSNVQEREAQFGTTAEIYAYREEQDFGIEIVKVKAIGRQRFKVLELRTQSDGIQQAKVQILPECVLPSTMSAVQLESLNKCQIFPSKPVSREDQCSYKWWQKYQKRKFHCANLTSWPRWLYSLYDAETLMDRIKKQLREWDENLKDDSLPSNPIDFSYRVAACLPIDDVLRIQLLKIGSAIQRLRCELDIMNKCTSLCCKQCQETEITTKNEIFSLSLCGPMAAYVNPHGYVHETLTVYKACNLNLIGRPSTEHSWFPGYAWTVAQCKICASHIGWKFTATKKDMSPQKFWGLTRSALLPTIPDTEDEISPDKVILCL
# UniProt Q13422, whole entry: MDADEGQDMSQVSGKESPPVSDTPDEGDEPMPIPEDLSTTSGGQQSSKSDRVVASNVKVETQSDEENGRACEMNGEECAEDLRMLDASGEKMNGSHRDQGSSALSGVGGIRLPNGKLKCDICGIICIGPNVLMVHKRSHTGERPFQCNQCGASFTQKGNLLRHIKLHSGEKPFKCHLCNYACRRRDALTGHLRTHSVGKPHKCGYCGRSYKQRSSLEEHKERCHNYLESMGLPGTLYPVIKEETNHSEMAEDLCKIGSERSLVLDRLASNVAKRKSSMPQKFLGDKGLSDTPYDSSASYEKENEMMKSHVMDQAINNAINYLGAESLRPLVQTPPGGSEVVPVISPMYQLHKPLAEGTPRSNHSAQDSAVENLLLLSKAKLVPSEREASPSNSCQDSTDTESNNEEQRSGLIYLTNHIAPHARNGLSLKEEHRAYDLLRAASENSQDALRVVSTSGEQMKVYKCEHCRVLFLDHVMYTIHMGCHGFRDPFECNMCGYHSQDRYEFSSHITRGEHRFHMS
# UniProt P30291, whole entry: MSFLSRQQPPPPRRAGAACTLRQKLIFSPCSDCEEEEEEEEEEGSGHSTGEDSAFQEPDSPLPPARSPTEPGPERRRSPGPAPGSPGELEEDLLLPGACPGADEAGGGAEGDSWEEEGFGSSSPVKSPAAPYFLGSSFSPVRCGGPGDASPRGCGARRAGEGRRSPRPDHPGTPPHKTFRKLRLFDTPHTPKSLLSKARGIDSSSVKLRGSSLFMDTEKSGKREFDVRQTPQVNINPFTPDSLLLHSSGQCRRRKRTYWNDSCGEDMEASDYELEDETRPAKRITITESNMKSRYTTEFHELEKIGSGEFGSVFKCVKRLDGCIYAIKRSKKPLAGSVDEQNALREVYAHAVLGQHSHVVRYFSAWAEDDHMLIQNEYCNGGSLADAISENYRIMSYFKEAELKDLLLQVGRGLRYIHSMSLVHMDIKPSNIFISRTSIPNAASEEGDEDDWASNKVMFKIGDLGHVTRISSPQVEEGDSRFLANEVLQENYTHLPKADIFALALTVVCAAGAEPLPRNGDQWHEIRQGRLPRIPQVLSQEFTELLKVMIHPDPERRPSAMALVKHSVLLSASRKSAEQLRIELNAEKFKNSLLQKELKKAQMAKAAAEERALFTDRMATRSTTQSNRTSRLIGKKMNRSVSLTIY
# UniProt Q9UKT9, whole entry: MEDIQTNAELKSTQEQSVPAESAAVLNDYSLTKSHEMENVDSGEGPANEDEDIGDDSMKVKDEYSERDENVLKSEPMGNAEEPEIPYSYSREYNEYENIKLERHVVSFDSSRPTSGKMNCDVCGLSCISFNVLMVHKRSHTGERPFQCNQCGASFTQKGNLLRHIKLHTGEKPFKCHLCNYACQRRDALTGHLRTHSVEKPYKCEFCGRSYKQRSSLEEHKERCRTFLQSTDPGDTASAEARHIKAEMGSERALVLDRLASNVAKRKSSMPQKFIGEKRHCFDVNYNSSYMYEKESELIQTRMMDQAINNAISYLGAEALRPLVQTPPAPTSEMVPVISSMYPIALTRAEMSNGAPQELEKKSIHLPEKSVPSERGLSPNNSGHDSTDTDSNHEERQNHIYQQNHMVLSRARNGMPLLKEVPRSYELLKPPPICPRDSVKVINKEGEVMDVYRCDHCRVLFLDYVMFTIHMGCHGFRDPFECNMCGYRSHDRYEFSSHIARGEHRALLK
# UniProt P48729, whole entry: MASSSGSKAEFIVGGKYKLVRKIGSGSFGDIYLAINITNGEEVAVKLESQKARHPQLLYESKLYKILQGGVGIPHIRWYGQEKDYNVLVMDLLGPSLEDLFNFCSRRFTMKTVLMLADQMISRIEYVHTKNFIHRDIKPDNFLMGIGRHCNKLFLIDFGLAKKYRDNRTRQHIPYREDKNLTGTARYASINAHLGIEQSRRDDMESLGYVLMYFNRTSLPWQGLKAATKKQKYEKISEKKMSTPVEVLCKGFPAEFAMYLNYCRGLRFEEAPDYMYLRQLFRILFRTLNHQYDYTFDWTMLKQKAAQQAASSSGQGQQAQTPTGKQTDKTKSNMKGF
# UniProt Q9UKS7, whole entry: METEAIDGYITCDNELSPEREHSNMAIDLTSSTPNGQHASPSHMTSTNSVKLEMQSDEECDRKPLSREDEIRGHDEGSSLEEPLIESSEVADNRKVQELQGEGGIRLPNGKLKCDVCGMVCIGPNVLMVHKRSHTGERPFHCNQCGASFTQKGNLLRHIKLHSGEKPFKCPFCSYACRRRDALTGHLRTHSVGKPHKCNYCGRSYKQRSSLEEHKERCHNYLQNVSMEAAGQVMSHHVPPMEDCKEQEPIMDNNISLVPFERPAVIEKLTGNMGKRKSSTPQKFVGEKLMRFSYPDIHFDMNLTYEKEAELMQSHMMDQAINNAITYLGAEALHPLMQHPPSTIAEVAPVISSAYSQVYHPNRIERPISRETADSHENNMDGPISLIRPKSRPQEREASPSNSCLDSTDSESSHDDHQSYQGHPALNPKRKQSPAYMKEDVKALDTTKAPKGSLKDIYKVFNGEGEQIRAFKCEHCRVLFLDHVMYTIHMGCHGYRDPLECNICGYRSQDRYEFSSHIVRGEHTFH
# UniProt Q16531, whole entry partner: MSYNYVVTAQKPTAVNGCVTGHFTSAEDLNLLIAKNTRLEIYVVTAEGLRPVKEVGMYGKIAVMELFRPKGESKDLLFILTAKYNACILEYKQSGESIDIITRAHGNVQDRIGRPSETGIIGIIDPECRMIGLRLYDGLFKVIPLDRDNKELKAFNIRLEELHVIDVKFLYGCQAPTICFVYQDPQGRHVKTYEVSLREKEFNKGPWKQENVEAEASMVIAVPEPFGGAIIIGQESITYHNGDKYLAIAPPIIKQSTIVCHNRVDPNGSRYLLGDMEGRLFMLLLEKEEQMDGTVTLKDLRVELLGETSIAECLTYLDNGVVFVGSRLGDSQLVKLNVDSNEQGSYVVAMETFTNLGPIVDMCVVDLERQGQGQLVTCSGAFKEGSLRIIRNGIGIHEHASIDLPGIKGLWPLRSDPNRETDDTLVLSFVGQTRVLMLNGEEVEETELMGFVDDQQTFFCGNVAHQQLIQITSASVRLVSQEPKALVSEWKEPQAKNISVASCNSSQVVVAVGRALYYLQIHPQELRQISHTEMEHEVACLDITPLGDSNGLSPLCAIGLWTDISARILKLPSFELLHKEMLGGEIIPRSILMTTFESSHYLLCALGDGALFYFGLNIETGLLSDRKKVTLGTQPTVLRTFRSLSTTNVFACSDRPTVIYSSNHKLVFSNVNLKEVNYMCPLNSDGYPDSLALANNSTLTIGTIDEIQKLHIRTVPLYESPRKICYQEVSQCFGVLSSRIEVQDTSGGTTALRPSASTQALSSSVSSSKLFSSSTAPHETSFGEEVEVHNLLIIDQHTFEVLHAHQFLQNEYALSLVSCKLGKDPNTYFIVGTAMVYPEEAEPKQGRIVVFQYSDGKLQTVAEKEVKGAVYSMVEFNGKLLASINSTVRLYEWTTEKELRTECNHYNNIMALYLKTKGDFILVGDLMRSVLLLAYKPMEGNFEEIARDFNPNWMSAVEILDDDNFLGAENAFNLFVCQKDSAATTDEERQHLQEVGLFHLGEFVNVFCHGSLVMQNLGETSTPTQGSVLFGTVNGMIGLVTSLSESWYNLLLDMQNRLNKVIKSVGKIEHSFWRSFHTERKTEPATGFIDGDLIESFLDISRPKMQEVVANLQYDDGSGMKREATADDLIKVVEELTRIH
# Biological target: GSPT1 (Homo sapiens, UniProt P15170+Q96SW2)
# Assay: Western blot assay of substrate protein degradation in hPBMCs
# Details: 24 hours treatment, compounds at 50 nM and 500 nM (concentration behind the class not stated)
row,Structure (SMILES),substrate protein remaining % (GSPT1)
1,O=C1CCC(N2Cc3cc(CN4CCC(N5CCN(c6noc7cc(F)ccc67)CC5)C(F)(F)C4)cc(F)c3C2=O)C(=O)N1 (centres unmarked),A (0% ≤ substrate protein remaining % ≤ 80%)
2,O=C1CCC(N2Cc3cc(CN4CCC(N5CCN(C(c6ccccc6)c6ccccn6)CC5)C(F)(F)C4)cc(F)c3C2=O)C(=O)N1 (centres unmarked),A (0% ≤ substrate protein remaining % ≤ 80%)
3,O=C1CCC(N2Cc3cc(CN4CCC(N5CCC(c6noc7cc(F)ccc67)CC5)C(F)(F)C4)ccc3C2=O)C(=O)N1 (centres unmarked),A (0% ≤ substrate protein remaining % ≤ 80%)

# Biological target: IKZF1 (Homo sapiens, UniProt Q13422+Q96SW2)
# Assay: as above
# Details: 24 hours treatment, compounds at 50 nM and 500 nM (concentration behind the class not stated)
row,Structure (SMILES),substrate protein remaining % (IKZF 1)
1,O=C1CCC(N2Cc3cc(CN4CCC(N5CCN(c6noc7cc(F)ccc67)CC5)C(F)(F)C4)cc(F)c3C2=O)C(=O)N1 (centres unmarked),B (80%< substrate protein remaining %≤ 100%)
2,O=C1CCC(N2Cc3cc(CN4CCC(N5CCN(C(c6ccccc6)c6ccccn6)CC5)C(F)(F)C4)cc(F)c3C2=O)C(=O)N1 (centres unmarked),B (80%< substrate protein remaining %≤ 100%)
3,O=C1CCC(N2Cc3cc(CN4CCC(N5CCC(c6noc7cc(F)ccc67)CC5)C(F)(F)C4)ccc3C2=O)C(=O)N1 (centres unmarked),A (0% ≤ substrate protein remaining % ≤ 80%)

# Biological target: WEE1 (Homo sapiens, UniProt P30291+Q96SW2)
# Assay: as above
# Details: 24 hours treatment, compounds at 50 nM and 500 nM (concentration behind the class not stated)
row,Structure (SMILES),substrate protein remaining % (WEE1)
1,O=C1CCC(N2Cc3cc(CN4CCC(N5CCN(c6noc7cc(F)ccc67)CC5)C(F)(F)C4)cc(F)c3C2=O)C(=O)N1 (centres unmarked),A (0% ≤ substrate protein remaining % ≤ 80%)
2,O=C1CCC(N2Cc3cc(CN4CCC(N5CCN(C(c6ccccc6)c6ccccn6)CC5)C(F)(F)C4)cc(F)c3C2=O)C(=O)N1 (centres unmarked),B (80%< substrate protein remaining %≤ 100%)
3,O=C1CCC(N2Cc3cc(CN4CCC(N5CCC(c6noc7cc(F)ccc67)CC5)C(F)(F)C4)ccc3C2=O)C(=O)N1 (centres unmarked),A (0% ≤ substrate protein remaining % ≤ 80%)

# Biological target: IKZF3 (Homo sapiens, UniProt Q96SW2+Q9UKT9)
# Assay: as above
# Details: 24 hours treatment, compounds at 50 nM and 500 nM (concentration behind the class not stated)
row,Structure (SMILES),substrate protein remaining % (IKZF3)
1,O=C1CCC(N2Cc3cc(CN4CCC(N5CCN(c6noc7cc(F)ccc67)CC5)C(F)(F)C4)cc(F)c3C2=O)C(=O)N1 (centres unmarked),A (0% ≤ substrate protein remaining % ≤ 80%)
2,O=C1CCC(N2Cc3cc(CN4CCC(N5CCN(C(c6ccccc6)c6ccccn6)CC5)C(F)(F)C4)cc(F)c3C2=O)C(=O)N1 (centres unmarked),B (80%< substrate protein remaining %≤ 100%)
3,O=C1CCC(N2Cc3cc(CN4CCC(N5CCC(c6noc7cc(F)ccc67)CC5)C(F)(F)C4)ccc3C2=O)C(=O)N1 (centres unmarked),A (0% ≤ substrate protein remaining % ≤ 80%)

# Biological target: CK1α (Homo sapiens, UniProt P48729+Q96SW2)
# Assay: as above
# Details: 24 hours treatment, compounds at 50 nM and 500 nM (concentration behind the class not stated)
row,Structure (SMILES),substrate protein remaining % (CK1a)
1,O=C1CCC(N2Cc3cc(CN4CCC(N5CCN(c6noc7cc(F)ccc67)CC5)C(F)(F)C4)cc(F)c3C2=O)C(=O)N1 (centres unmarked),A (0% ≤ substrate protein remaining % ≤ 80%)
2,O=C1CCC(N2Cc3cc(CN4CCC(N5CCN(C(c6ccccc6)c6ccccn6)CC5)C(F)(F)C4)cc(F)c3C2=O)C(=O)N1 (centres unmarked),A (0% ≤ substrate protein remaining % ≤ 80%)
3,O=C1CCC(N2Cc3cc(CN4CCC(N5CCC(c6noc7cc(F)ccc67)CC5)C(F)(F)C4)ccc3C2=O)C(=O)N1 (centres unmarked),B (80%< substrate protein remaining %≤ 100%)

# Biological target: IKZF2 (Homo sapiens, UniProt Q96SW2+Q9UKS7)
# Assay: as above
# Details: 24 hours treatment, compounds at 50 nM and 500 nM (concentration behind the class not stated)
row,Structure (SMILES),substrate protein remaining % (IKZF2)
1,O=C1CCC(N2Cc3cc(CN4CCC(N5CCN(c6noc7cc(F)ccc67)CC5)C(F)(F)C4)cc(F)c3C2=O)C(=O)N1 (centres unmarked),B (80%< substrate protein remaining %≤ 100%)
2,O=C1CCC(N2Cc3cc(CN4CCC(N5CCN(C(c6ccccc6)c6ccccn6)CC5)C(F)(F)C4)cc(F)c3C2=O)C(=O)N1 (centres unmarked),B (80%< substrate protein remaining %≤ 100%)
3,O=C1CCC(N2Cc3cc(CN4CCC(N5CCC(c6noc7cc(F)ccc67)CC5)C(F)(F)C4)ccc3C2=O)C(=O)N1 (centres unmarked),A (0% ≤ substrate protein remaining % ≤ 80%)

# Biological target: CRBN (Homo sapiens, UniProt Q96SW2)
# Assay: CRBN binding affinity by HTRF (CEREBLON BINDING kit)
# Details: CRBN binding, HTRF, compound at 0.5 µM
row,Structure (SMILES),Inhibition Rate at 0.5 µM (%)
1,O=C1CCC(N2Cc3cc(CN4CCC(N5CCN(c6noc7cc(F)ccc67)CC5)C(F)(F)C4)cc(F)c3C2=O)C(=O)N1 (centres unmarked),a5 (53% < a5 ≤ 60%)
2,O=C1CCC(N2Cc3cc(CN4CCC(N5CCN(C(c6ccccc6)c6ccccn6)CC5)C(F)(F)C4)cc(F)c3C2=O)C(=O)N1 (centres unmarked),a5 (53% < a5 ≤ 60%)

# Same assay, conditions: CRBN binding, HTRF, compound at 2 µM
row,Structure (SMILES),Inhibition Rate at 2 µM (%)
1,O=C1CCC(N2Cc3cc(CN4CCC(N5CCN(c6noc7cc(F)ccc67)CC5)C(F)(F)C4)cc(F)c3C2=O)C(=O)N1 (centres unmarked),a8 (80% < a8 ≤100%)
2,O=C1CCC(N2Cc3cc(CN4CCC(N5CCN(C(c6ccccc6)c6ccccn6)CC5)C(F)(F)C4)cc(F)c3C2=O)C(=O)N1 (centres unmarked),a8 (80% < a8 ≤100%)

# Same assay, conditions: read-out: HTRF IC50; human Cereblon WT GST-tagged protein; 3 hours at room temperature
row,Structure (SMILES),IC50 [nM]
1,O=C1CCC(N2Cc3cc(CN4CCC(N5CCC(c6noc7cc(F)ccc67)CC5)C(F)(F)C4)ccc3C2=O)C(=O)N1 (centres unmarked),100 to 500

# Tested on: Human myeloid monocytic leukemia cell (MV-4-11)
# Assay: Tumor cell proliferation inhibition (cell viability assay)
# Details: MV-4-11 cells; 10 nM; 96 hours
row,Structure (SMILES),Inhibition Rate at 10 nM (%)
1,O=C1CCC(N2Cc3cc(CN4CCC(N5CCN(C(c6ccccc6)c6ccccn6)CC5)C(F)(F)C4)cc(F)c3C2=O)C(=O)N1 (centres unmarked),1a8 (60% ≤ 1a8 < 70%)

# Same assay, conditions: MV-4-11 cells; 500 nM; 96 hours
row,Structure (SMILES),Inhibition Rate at 500 nM (%)
1,O=C1CCC(N2Cc3cc(CN4CCC(N5CCN(C(c6ccccc6)c6ccccn6)CC5)C(F)(F)C4)cc(F)c3C2=O)C(=O)N1 (centres unmarked),1a10 (80% ≤ 1a10 < 100%)

# Tested on: Human multiple myeloma cell (MM.1S)
# Assay: as above
# Details: MM.1S cells; 10 nM; 96 hours
row,Structure (SMILES),Inhibition Rate at 10 nM (%)
1,O=C1CCC(N2Cc3cc(CN4CCC(N5CCN(c6noc7cc(F)ccc67)CC5)C(F)(F)C4)cc(F)c3C2=O)C(=O)N1 (centres unmarked),1b4 (20% ≤ 1b4 < 32%)

# Same assay, conditions: MM.1S cells; 500 nM; 96 hours
row,Structure (SMILES),Inhibition Rate at 500 nM (%)
1,O=C1CCC(N2Cc3cc(CN4CCC(N5CCN(c6noc7cc(F)ccc67)CC5)C(F)(F)C4)cc(F)c3C2=O)C(=O)N1 (centres unmarked),1b9 (70% ≤ 1b9 < 80%)

# Same assay, conditions: read-out: Inhibitory activity against tumor cells proliferation (IC50, nM) MM.1S; MM.1S cells; 96 hours
row,Structure (SMILES),IC50 [nM]
1,O=C1CCC(N2Cc3cc(CN4CCC(N5CCC(c6noc7cc(F)ccc67)CC5)C(F)(F)C4)ccc3C2=O)C(=O)N1 (centres unmarked),10 to 20

# Tested on: IL-2
# Assay: Inflammatory cytokine release from PBMCs induced by PHA (flow cytometry CBA)
# Details: 0.1 µM; PBMCs, PHA 1 µg/mL, 24 h
row,Structure (SMILES),Inhibition Rate (%) IL-2
1,O=C1CCC(N2Cc3cc(CN4CCC(N5CCN(C(c6ccccc6)c6ccccn6)CC5)C(F)(F)C4)cc(F)c3C2=O)C(=O)N1 (centres unmarked),IV9 (40% < IV9 ≤ 50%)
